Literature values in US20260014261A1, “TARGETED PROTEIN MODIFICATION” (Weatherwax Biotechnologies Corporation, priority 2022, published 2026).

By UniProt entry, the sequences of proteins in these tests, tags left out. Residues count along the entry.
UniProt P40337, 54-213 limits assumed: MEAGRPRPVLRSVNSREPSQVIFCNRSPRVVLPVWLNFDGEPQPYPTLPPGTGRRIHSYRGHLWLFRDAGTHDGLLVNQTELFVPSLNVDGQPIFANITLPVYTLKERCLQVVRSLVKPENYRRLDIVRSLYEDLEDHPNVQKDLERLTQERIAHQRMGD
UniProt Q15369, 17-112 partner limits assumed: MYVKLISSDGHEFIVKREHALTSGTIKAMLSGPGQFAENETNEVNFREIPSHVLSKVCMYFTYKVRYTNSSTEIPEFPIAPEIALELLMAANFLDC
UniProt Q15370, 1-104 partner limits assumed: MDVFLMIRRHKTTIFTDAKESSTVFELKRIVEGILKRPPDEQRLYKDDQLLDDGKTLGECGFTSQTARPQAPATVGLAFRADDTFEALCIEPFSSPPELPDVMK

Target: VHL (Homo sapiens, UniProt P40337)
Conditions: read-out: binding affinity (Kd) for VHL

Kd: 50 nM
SMILES: Cc1ncsc1-c1ccc(CNC(=O)[C@@H]2C[C@@H](O)CN2C(=O)[C@@H](N)C(C)(C)C)cc1
